The list shows a part of the results, in another mix than the full data. The source made the active and inactive calls. The call rests on the fitted dose curve; in most records, active means well fitted inhibition curve with a large enough effect; inconclusive means small, poorly fitted or top-dose-only effect; inactive means no such curve, though single readings can be large or run the other way. Where a call stands in place of a potency, no number is given.
What follows are compounds tested against Rap guanine nucleotide exchange factor 4 (Homo sapiens) (UniProt Q8WZA2) (assay: qHTS for Antagonist of cAMP-regulated guanine nucleotide exchange factor 2 (EPAC2): primary screen). Settings: EPAC2 GEF exchange of Rap1B-BODIPY-GDP, fluorescence; series mostly up to 114 µM.
Text: In multi-cellular eukaryotic organisms, the effects of cAMP are transduced by two ubiquitously-expressed intracellular cAMP receptors, the classic protein kinase A/cAMP-dependent protein kinase (PKA/cAPK) and the more recently discovered exchange protein directly activated by cAMP/cAMP-regulated guanine nucleotide exchange factor (EPAC/cAMP-GEF). Both PKA and EPAC are ubiquitously expressed in all tissues, and an increase in intracellular cAMP levels will lead to the activation of both PKA and EPAC. Therefore, careful dissections of the individual role and relative contribution of EPAC and PKA within the overall cAMP signaling in various model systems are critical for further elucidating the mechanism of cAMP signaling. To date no EPAC-specific antagonists and agonist, as well as isoform-specific agonists have been reported, and developing EPAC-specific pharmacological probes to determine the physiological functions that EPAC play in the overall cAMP-mediated signaling remains a major challenge within the research field. Furthermore, identified regulators of EPAC may lead to new mechanism-based therapeutic strategies specifically targeting the EPAC / cAMP-signaling components as EPAC has been implicated to play important roles in major human pathological conditions such as diabetes, heart disease, and cancer.
This qHTS will be used to screen the Molecular Libraries Small Molecule Repository (MLSMR) as a concentration-titration series using the NCGC unique quantitative screening (qHTS) platform to find inhibitors for EPAC2. In addition, this assay will also be used as a counterscreen for the EPAC1 qHTS. This fluorescent based assay is developed and validated for EPAC2 that measures exchange using EPAC effector Rap1 complex with BODIPY-GDP, a GDP analog with a tethered fluorophores. Inhibitors are identified by monitoring the change in fluorescence signal as the exchanged free BODIPY-GDP has a reduced fluorescence compared to Rap1-bound BODIPY-GDP. Decrease in signal (inhibition) is the desired outcome for the EPAC2 antagonist while no activity in this assay is desired for the EPAC1 antagonist counterscreen.
NIH Chemical Genomics Center [NCGC]
NIH Molecular Libraries Probe Centers Network [MLPCN]
Assay Submitter (PI): Xiaodong Cheng, The University of Texas, Medical Branch
Briefly, three uL of reagents (100 nM EPAC2, 250 nM RAP1B-BODIPY-GDP, 50 uM GDP) were dispensed into a 1536-well Greiner black solid-bottom medium binding assay plate. Controls and test compounds (23 nL) were transferred to the plate via a Kalypsys pin tool equipped with a 1536-pin array. The plates were centrifuged at 1,000 rpm for 15 seconds followed by 5 minute incubation at room temperature. The assay plates were read at 5 minute intervals for 30 minutes in the ViewLux plate reader using 480nm excitation and 540nm emission filters. The results were normalized to the agonist positive control ATA and DMSO.
Further: nearly all actives have a fitted effect of over 45% in size.

Amino acid sequences for entries named in this document (tags omitted).
UniProt Q8WZA2, whole entry: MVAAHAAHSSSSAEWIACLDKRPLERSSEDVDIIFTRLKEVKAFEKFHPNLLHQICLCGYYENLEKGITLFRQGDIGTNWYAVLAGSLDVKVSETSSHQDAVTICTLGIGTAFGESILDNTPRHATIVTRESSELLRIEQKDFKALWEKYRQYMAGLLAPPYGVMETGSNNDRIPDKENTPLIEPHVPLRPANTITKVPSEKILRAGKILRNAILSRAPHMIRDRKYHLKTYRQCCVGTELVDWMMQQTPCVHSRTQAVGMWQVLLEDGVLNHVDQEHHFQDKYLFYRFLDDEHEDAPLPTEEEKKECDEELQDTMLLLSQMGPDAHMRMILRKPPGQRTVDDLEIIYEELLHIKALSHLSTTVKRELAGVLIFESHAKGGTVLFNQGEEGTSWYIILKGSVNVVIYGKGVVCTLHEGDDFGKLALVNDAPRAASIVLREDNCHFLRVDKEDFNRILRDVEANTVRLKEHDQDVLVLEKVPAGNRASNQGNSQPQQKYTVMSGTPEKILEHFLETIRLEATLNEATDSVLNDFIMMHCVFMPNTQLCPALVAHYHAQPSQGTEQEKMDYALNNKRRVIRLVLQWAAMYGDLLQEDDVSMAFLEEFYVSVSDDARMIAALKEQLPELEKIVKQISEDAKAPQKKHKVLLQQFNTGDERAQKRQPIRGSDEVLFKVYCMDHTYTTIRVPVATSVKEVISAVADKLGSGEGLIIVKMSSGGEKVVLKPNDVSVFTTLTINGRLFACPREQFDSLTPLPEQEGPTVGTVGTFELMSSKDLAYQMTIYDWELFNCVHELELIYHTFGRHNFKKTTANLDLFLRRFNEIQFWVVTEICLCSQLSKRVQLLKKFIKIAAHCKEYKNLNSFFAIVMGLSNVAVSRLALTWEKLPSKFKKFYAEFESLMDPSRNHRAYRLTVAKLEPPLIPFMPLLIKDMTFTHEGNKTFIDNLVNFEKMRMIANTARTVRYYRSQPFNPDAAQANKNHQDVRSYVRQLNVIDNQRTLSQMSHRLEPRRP

SMILES	Potency
O=[N+]([O-])c1cc([N+](=O)[O-])c(-n2nnc3ccccc32)c([N+](=O)[O-])c1	inactive
CN(Cc1cccnc1)C(=O)COc1ccc(Cl)c(Cl)c1.O=[N+]([O-])c1cc([N+](=O)[O-])c(O)c([N+](=O)[O-])c1	inactive
Cc1nc2ccc3ccccc3c2s1.O=[N+]([O-])c1cc([N+](=O)[O-])c(O)c([N+](=O)[O-])c1	inactive
O=[N+]([O-])c1cc([N+](=O)[O-])c(Nc2nnnn2CCO)c([N+](=O)[O-])c1	inactive
CC1=C2N=C(C=C3N=C(C(C)=C4[N-][C@@](C)([C@@H]5N=C1[C@](C)(CCC(=O)NC[C@@H](C)OP(=O)([O-])O[C@H]1[C@@H](O)[C@@H](n6cnc7cc(C)c(C)cc76)O[C@@H]1CO)[C@H]5CC(N)=O)[C@@](C)(CC(N)=O)[C@@H]4CCC(N)=O)[C@@](C)(CC(N)=O)[C@@H]3CCC(N)=O)C(C)(C)[C@@H]2CCC(N)=O.[C-]#N.[Co+3]	inactive
CN1CCCCC1COC(=O)C1(O)c2ccccc2CCc2ccccc21 (stereo not drawn)	inactive
COc1ccccc1OP(C)(=O)Nc1c(C)cccc1C (stereo not drawn)	inactive
CP(=O)(Nc1ccc(SC(F)(F)F)cc1)Oc1ccccc1 (stereo not drawn)	inactive
CCCOc1ccc(NP(C)(=O)Oc2ccc(Cl)cc2)cc1 (stereo not drawn)	inactive
COc1ccc(-c2ccccn2)cc1.O=[N+]([O-])c1cc([N+](=O)[O-])c(O)c([N+](=O)[O-])c1	inactive
CC1=NCCc2c1[nH]c1ccccc21.O=[N+]([O-])c1cc([N+](=O)[O-])c(O)c([N+](=O)[O-])c1	inactive
COc1ccccc1OP(C)(=O)Nc1cccc(Br)c1 (stereo not drawn)	inactive
Cc1cc(C)cc(OP(C)(=O)Nc2ccc(C)cc2C)c1 (stereo not drawn)	inactive
CCOC(=O)c1ccc(NP(C)(=O)Oc2cc(C)cc(C)c2)cc1 (stereo not drawn)	inactive
CP(=O)(Nc1cccc(Br)c1)Oc1ccccc1 (stereo not drawn)	inactive
Cc1cc(C)cc(OP(C)(=O)Nc2ccccn2)c1 (stereo not drawn)	inactive
Cc1ccc(C)c(NP(C)(=O)Oc2ccccc2)c1 (stereo not drawn)	inactive
CCN(CC)CCCOC(=O)C(O)(c1ccccc1)c1ccccc1	inactive
COc1ccccc1-c1ccccn1.O=[N+]([O-])c1cc([N+](=O)[O-])c(O)c([N+](=O)[O-])c1	inactive
O=[N+]([O-])c1cc([N+](=O)[O-])c(Nc2cccnc2)c([N+](=O)[O-])c1	inactive
CC(C)(C)c1ccc(OP(C)(=O)Nc2ccc(SC(F)(F)F)cc2)cc1 (stereo not drawn)	inactive
Cc1cccc(C)c1OP(C)(N)=O (stereo not drawn)	inactive
O=[N+]([O-])c1ccc2c(c1)C=Nc1ccccc1O2	inactive
